Test results from patent US20250381185A1, “CDK4/PARP1 DUAL-TARGET INHIBITOR AND USE THEREOF” (YANBIAN UNIVERSITY, priority 2024, published 2025).

Sequences of proteins named here, by UniProt entry; tags and fusion partners are left off.
UniProt P11802, whole entry: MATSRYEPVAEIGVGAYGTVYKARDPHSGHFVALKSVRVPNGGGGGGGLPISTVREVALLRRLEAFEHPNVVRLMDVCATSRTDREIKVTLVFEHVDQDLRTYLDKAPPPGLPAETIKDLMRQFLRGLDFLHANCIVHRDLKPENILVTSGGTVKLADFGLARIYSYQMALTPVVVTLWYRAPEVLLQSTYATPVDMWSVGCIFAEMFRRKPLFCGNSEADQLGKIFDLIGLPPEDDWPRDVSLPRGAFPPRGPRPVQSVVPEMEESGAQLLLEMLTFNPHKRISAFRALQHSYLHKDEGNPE
UniProt P09874, whole entry: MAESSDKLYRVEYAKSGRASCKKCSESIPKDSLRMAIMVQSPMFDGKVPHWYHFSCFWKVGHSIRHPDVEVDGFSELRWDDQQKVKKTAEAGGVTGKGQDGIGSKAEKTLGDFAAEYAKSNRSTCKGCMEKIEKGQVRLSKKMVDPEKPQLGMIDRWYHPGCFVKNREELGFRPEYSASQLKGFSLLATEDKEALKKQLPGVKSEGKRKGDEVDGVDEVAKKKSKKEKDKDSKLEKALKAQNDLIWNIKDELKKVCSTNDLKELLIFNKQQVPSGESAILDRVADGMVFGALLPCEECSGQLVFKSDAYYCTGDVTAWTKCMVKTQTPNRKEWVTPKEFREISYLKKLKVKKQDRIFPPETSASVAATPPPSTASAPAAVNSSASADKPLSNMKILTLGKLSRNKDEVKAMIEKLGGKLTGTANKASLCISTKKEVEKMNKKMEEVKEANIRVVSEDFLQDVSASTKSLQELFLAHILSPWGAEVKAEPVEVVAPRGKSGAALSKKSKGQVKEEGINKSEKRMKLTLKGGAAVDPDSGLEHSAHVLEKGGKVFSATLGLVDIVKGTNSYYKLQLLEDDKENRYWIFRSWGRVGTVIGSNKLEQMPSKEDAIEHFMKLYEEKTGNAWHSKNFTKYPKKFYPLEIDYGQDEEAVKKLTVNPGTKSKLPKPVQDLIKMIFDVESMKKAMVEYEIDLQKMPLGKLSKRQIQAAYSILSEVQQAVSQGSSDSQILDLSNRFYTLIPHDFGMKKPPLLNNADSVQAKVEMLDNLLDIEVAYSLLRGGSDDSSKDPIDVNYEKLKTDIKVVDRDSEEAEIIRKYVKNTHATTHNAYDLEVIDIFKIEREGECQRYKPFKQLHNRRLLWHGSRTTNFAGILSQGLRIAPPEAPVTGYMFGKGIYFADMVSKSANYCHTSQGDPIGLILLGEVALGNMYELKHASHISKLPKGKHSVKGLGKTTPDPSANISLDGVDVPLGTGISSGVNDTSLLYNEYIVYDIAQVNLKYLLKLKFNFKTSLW
UniProt P24385, whole entry partner: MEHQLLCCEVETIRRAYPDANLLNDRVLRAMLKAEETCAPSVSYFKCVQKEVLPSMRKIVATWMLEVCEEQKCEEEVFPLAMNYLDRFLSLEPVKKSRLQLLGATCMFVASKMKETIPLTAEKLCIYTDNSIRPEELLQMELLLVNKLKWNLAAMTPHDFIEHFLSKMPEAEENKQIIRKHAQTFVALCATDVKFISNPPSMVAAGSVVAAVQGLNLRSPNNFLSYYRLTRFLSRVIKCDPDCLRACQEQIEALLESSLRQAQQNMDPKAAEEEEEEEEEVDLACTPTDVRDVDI

Key:
CDK4 = CDK4 (Homo sapiens, UniProt P11802); experiment: IC50 of dual-target inhibitors against CDK4; conditions: read-out: IC50 CDK4
PARP1 = PARP1 (Homo sapiens, UniProt P09874); experiment: IC50 of dual-target inhibitors against PARP1; conditions: read-out: IC50 PARP1

Row | IC50 (CDK4) [µM] | IC50 (PARP1) [µM] | SMILES
1 | > 0.5 | 0.01 to 0.1 | CN(C)C(=O)c1cc2cnc(NNC(=O)[C@H](Cc3c[nH]c4ccccc34)NC(=O)c3cc(Cc4n[nH]c(=O)c5ccccc45)ccc3F)nc2n1C1CCCC1
2 | > 0.5 | 0.01 to 0.1 | C[C@H](NC(=O)c1cc(Cc2n[nH]c(=O)c3ccccc23)ccc1F)C(=O)NNc1ncc2cc(C(=O)N(C)C)n(C3CCCC3)c2n1
3 | 0.01 to 0.1 | < 0.01 | CN(C)C(=O)c1cc2cnc(NC3CCN(C(=O)c4cc(Cc5n[nH]c(=O)c6ccccc56)ccc4F)CC3)nc2n1C1CCCC1
4 | > 0.5 | < 0.01 | CN(C)C(=O)c1cc2cnc(NNC(=O)CNC(=O)c3cc(Cc4n[nH]c(=O)c5ccccc45)ccc3F)nc2n1C1CCCC1
5 | > 0.5 | 0.01 to 0.1 | CN(C)C(=O)c1cc2cnc(NCCNC(=O)c3cc(Cc4n[nH]c(=O)c5ccccc45)ccc3F)nc2n1C1CCCC1
6 | 0.1 to 0.5 | < 0.01 | CN(C)C(=O)c1cc2cnc(NCCCNC(=O)c3cc(Cc4n[nH]c(=O)c5ccccc45)ccc3F)nc2n1C1CCCC1
7 | > 0.5 | 0.01 to 0.1 | CN(C)C(=O)c1cc2cnc(N3CCCN(C(=O)c4cc(Cc5n[nH]c(=O)c6ccccc56)ccc4F)CC3)nc2n1C1CCCC1
8 | > 0.5 | < 0.01 | CN(C)C(=O)c1cc2cnc(NCCCCCNC(=O)c3cc(Cc4n[nH]c(=O)c5ccccc45)ccc3F)nc2n1C1CCCC1
9 | > 0.5 | > 0.5 | CN(C)C(=O)c1cc2cnc(NCCCCCCCCNC(=O)c3cc(Cc4n[nH]c(=O)c5ccccc45)ccc3F)nc2n1C1CCCC1
10 | > 0.5 | < 0.01 | CN(C)C(=O)c1cc2cnc(NCCCCNC(=O)c3cc(Cc4n[nH]c(=O)c5ccccc45)ccc3F)nc2n1C1CCCC1
11 | > 0.5 | 0.1 to 0.5 | CN(C)C(=O)c1cc2cnc(NNC(=O)[C@H](Cc3ccccc3)NC(=O)c3cc(Cc4n[nH]c(=O)c5ccccc45)ccc3F)nc2n1C1CCCC1
12 | < 0.01 | < 0.01 | CN(C)C(=O)c1cc2cnc(Nc3ccc(N4CCN(C(=O)c5cc(Cc6n[nH]c(=O)c7ccccc67)ccc5F)CC4)cn3)nc2n1C1CCCC1
13 | > 0.5 | 0.01 to 0.1 | CN(C)C(=O)c1cc2cnc(NCCCCCCCNC(=O)c3cc(Cc4n[nH]c(=O)c5ccccc45)ccc3F)nc2n1C1CCCC1
14 | > 0.5 | 0.1 to 0.5 | C[C@H](NC(=O)c1cc(Cc2n[nH]c(=O)c3ccccc23)ccc1F)C(=O)NCCNc1ncc2cc(C(=O)N(C)C)n(C3CCCC3)c2n1
